Values of other authors as cited in patent US20040220266A1, “Composition and method for enhancing the bioavailability of calcium and magnesium in dietary supplements and food additives” (priority 2002, published 2004).

Conditions: 20° C.; cited from earlier work

## Calcium glycerophosphate
  soluble in parts of water: 50 parts of water
